pIC50: −log10 of the molar value.
Assays:
MOLM-13 = experiment: Growth inhibition of human MOLM13 cells after 4 days by WST-8 assay; assay type: functional, cell-based; settings: MOLM-13, 96 h
MV4-11 = experiment: Growth inhibition of human MV4-11 cells after 4 days by WST-8 assay; assay type: functional, cell-based; settings: MV4-11, 96 h
HCC1395 = experiment: Cytotoxicity against human HCC1395 cells assessed as cell growth inhibition after 4 days by WST-8 assay; assay type: functional, cell-based; settings: HCC1395, 96 h
SUM149PT = experiment: Cytotoxicity against human SUM149PT cells assessed as cell growth inhibition after 4 days by WST-8 assay; assay type: functional, cell-based; settings: 96 h
[1] = target: T1, Serine/threonine-protein kinase PLK4 (Homo sapiens, UniProt O00444); experiment: Inhibition of human PLK4 (M1 to S273 residues) expressed in mammalian expression system
T1 sequence (O00444 whole entry): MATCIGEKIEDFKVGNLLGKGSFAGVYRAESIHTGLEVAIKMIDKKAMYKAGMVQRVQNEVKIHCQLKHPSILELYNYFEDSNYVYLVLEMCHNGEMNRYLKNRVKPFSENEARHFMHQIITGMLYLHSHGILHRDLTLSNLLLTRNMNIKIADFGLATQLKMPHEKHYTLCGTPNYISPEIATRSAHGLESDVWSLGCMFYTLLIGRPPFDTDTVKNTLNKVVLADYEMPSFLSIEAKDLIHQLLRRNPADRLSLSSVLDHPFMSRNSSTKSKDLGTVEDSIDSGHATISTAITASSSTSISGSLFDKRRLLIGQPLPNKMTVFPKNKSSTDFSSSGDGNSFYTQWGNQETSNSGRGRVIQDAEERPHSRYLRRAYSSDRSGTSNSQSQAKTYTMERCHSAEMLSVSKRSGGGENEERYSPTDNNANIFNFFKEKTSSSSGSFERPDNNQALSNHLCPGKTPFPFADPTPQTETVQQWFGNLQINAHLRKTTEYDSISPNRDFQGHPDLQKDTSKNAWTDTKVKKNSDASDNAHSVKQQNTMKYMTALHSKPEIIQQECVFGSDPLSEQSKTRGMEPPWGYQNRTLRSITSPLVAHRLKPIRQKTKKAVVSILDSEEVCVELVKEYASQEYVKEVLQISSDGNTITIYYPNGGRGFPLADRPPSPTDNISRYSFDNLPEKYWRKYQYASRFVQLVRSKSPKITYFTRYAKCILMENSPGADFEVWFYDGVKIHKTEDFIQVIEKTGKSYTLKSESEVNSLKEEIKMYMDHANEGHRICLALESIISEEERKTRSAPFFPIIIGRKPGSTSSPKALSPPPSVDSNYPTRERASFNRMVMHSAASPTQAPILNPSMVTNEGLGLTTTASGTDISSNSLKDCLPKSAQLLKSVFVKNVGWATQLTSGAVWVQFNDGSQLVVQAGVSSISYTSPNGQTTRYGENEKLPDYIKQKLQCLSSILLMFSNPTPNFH

MDA-MB-157 = experiment: Cytotoxicity against human MDA-MB-157 cells assessed as cell growth inhibition after 4 days by WST-8 assay; assay type: functional, cell-based; settings: MDA-MB-157, 96 h
MDA-MB-453 = experiment: Cytotoxicity against human MDA-MB-453 cells assessed as cell growth inhibition after 4 days by WST-8 assay; assay type: functional, cell-based; settings: MDA-MB-453, 96 h
MDA-MB-361 = experiment: Cytotoxicity against human MDA-MB-361 cells assessed as cell growth inhibition after 4 days by WST-8 assay; assay type: functional, cell-based; settings: MDA-MB-361, 96 h
MDA-MB-231 = experiment: Cytotoxicity against human MDA-MB-231 cells assessed as cell growth inhibition after 4 days by WST-8 assay; assay type: functional, cell-based; settings: MDA-MB-231, 96 h
HCC38 = experiment: Cytotoxicity against human HCC38 cells assessed as cell growth inhibition after 4 days by WST-8 assay; assay type: functional, cell-based; settings: HCC38, 96 h
[2] = Cytotoxicity against human HCC1428 cells assessed as cell growth inhibition after 4 days by WST-8 assay; assay type: functional, cell-based; settings: HCC1428, 96 h
BT-474 = experiment: Cytotoxicity against human BT474 cells assessed as cell growth inhibition after 4 days by WST-8 assay; assay type: functional, cell-based; settings: BT-474, 96 h
BT-549 = experiment: Cytotoxicity against human BT549 cells assessed as cell growth inhibition after 4 days by WST-8 assay; assay type: functional, cell-based; settings: BT-549, 96 h
MDA-MB-436 = experiment: Cytotoxicity against human MDA-MB-436 cells assessed as cell growth inhibition after 4 days by WST-8 assay; assay type: functional, cell-based; settings: MDA-MB-436, 96 h
MDA-MB-468 = experiment: Cytotoxicity against human MDA-MB-468 cells assessed as cell growth inhibition after 4 days by WST-8 assay; assay type: functional, cell-based; settings: MDA-MB-468, 96 h
BT-20 = experiment: Cytotoxicity against human BT20 cells assessed as cell growth inhibition after 4 days by WST-8 assay; assay type: functional, cell-based; settings: BT-20, 96 h

| pIC50 (MOLM-13) | pIC50 (MV4-11) | pIC50 [1] | Structure (SMILES) | pIC50 (HCC1395) | pIC50 (SUM149PT) | pIC50 (MDA-MB-157) | pIC50 (MDA-MB-453) | pIC50 (MDA-MB-361) | pIC50 (MDA-MB-231) | pIC50 (HCC38) | pIC50 [2] | pIC50 (BT-474) | pIC50 (BT-549) | pIC50 (MDA-MB-436) | pIC50 (MDA-MB-468) | pIC50 (BT-20) |
| --- | --- | --- | --- | --- | --- | --- | --- | --- | --- | --- | --- | --- | --- | --- | --- | --- |
| 7.18 |  |  | COc1cc2c(cc1-c1c(C)noc1C)[nH]c1ccnc(-c3c(C4CC4)n[nH]c3C)c12 |  |  |  |  |  |  |  |  |  |  |  |  |  |
| 7.28 | 7.59 | 5.41 | COc1cc2c(cc1-c1c(C)noc1C)[nH]c1nc(C)nc(-c3ccnc4ccccc34)c12 | 5.91 | 6.22 | 7.41 | 6.73 | 6.72 | 6.61 | 6.55 | 6.50 | 6.36 | 6.39 | 5.77 | 5.99 | 5.77 |

Source: ChEMBL document CHEMBL4184143, “Structure-Based Discovery of 4-(6-Methoxy-2-methyl-4-(quinolin-4-yl)-9H-pyrimido[4,5-b]indol-7-yl)-3,5-dimethylisoxazole (CD161) as a Potent and Orally Bioavailable BET Bromodomain Inhibitor” (J Med Chem, 2017)
